Laboratory results: patent US12139488B2, “Pyrido[3,2-d]pyrimidine compounds uses thereof for treating a proliferative disease” (Universite de Montreal, priority 2021, dated 2024)

What follows are compounds tested on pERK in HCT-116 cells (KRAS G13D) (assay: Phospho-ERK inhibition (AlphaLISA SureFire Ultra p-ERK 1/2), HCT116). Settings: read-out: HCT116 pERK IC50; HCT116 cells; class symbol.
Protocol: All cancer cell lines (A375, A101D, A2058, RKO, HT29 SK-MEL 30, IPC298, HepG2, HCT-116, Lovo, SWV620, SW480, NCI-H358, NCI-H2122, Calu-6, NCIH2087, NCIH1755, NCIH1666 and Mewo) were obtained from ATCC and cultured in RPMI-1640 medium (Gibco) supplemented with 5% heat inactivated fetal bovine serum (FBS, Wisent) at 37° C. under 5% CO2. Cells were maintained in T175 flasks (Greiner). They were passaged by removing the culture medium, washing once in 10 mL of room temperature Phosphate Buffered Saline (PBS; Wisent) and incubating at 37° C. with 2 mL of 0.05% Trypsin (Thermo-Fisher). Trypsin was then inactivated by adding complete growth medium and the cells were then replated in a T175 culture dish at the appropriate dilution. All cell lines were routinely tested for mycoplasma contamination. Tissue type and mutational status of each cell line can be found in Table B.
AlphaLISA® SureFire® Ultra™ p-ERK 1/2 (Thr202/Tyr204) analysis was conducted on cells plated in 100 μL of complete RPMI-1640 growth medium in 96-well flat-bottomed transparent dishes (Costar) at a density indicated in Table C. Cells were maintained overnight at 37° C. under 5% CO2 before treatment with compounds' dilution series for one hour. The cell density in cells/cm^2 corresponds to cell number divided by the area of one well of a 96-well plate ([…]).
In a dilution series 100 μL/well of test substance dilution prepared in complete RPMI-1640 growth media was added to the cells. The dilution series is selected so that ten concentrations cover a range from 10 μM to 0.33 nM. If necessary the initial concentration of 10 μM is increased to 100 μM or lowered to 1 μM (as in the case of A375 and H1666 cells, which are generally more sensitive to the compounds) and further dilution is carried out accordingly. The final concentration of DMSO in the assay is set at 0.5%.
After treatment, media was removed and cells were lysed in 50 μL of 1× AlphaScreen Ultra Lysis Buffer (Perkin Elmer). The AlphaLISA® SureFire® Ultra™ p-ERK 1/2 (Thr202/Tyr2O4) (PerkinElmer) reactions were performed with 5 μL of cell lysate according to the manufacturer's specifications in 384-well proxyplates (Perkin Elmer) followed by overnight incubation of the reactions at room temperature in a humidified chamber. After completion of the reactions, the signals were recorded on an EnVision plate reader (Perkin Elmer) using built in AlphaLISA® settings.
The effect of each compound dilution on the pERK signal was expressed in % inhibition and calculated as follows. An internal 100% inhibition control ([…] trametinib, cat #HY-10999; MedChem Express; CAS #871700-17-3) was included in each plate and used as a measure of pERK background. First, the value obtained for trametinib was subtracted from each data point. The average of DMSO (vehicle) controls (set as 0% inhibition) was established and used to calculate % inhibition: % inhibition=100*(1-((pERK signalcompound)/(pERK signalDMSO)))
The ability of each compound to inhibit pERK signal was expressed as an IC50 value obtained by plotting the inhibition values for each data point of a dilution series and fitting the obtained curves using a log(agonist) versus response-variable slope (four parameters) function using GraphPadPrism (V7.0) or Dotmatics Screening Ultra platform.
When present, paradoxical pERK induction is inferred from the negative % inhibition values observed in the pERK IC50 curves of a compound.
COc1ccc(S(=O)(=O)Nc2ccc(F)c(Nc3ncnc4ccc(-n5cc(S(=O)(=O)N(C)CCN(C)C)c6ccccc65)nc34)c2F)c(C)c1Cl was tested, and the IC50 was < 500 nM.
In the case of CN(C)S(=O)(=O)c1cn(-c2ccc3ncnc(Nc4c(F)ccc(NS(=O)(=O)c5cccc(Cl)c5Cl)c4F)c3n2)c2ccccc12, the IC50 is reported as < 500 nM.
In the case of Cc1c(F)cccc1S(=O)(=O)Nc1ccc(F)c(Nc2ncnc3ccc(-n4cnc5cc(F)c(F)cc54)nc23)c1F, the IC50 is reported as < 500 nM.
In the case of CN(c1ccncc1)S(=O)(=O)c1cn(-c2ccc3ncnc(Nc4c(F)ccc(NS(=O)(=O)c5cccc(Cl)c5Cl)c4F)c3n2)c2ccccc12, the IC50 is reported as < 500 nM.
Cc1nccc(S(=O)(=O)Nc2ccc(F)c(Nc3ncnc4ccc(-n5cnc6c(N)cccc65)nc34)c2F)c1C gave an IC50 of 1000 to 10000 nM.
CCc1ccccc1S(=O)(=O)Nc1ccc(F)c(Nc2ncnc3ccc(-n4cnc5c(N)cccc54)nc23)c1F was tested, and the IC50 was < 500 nM.
O=S(=O)(CC(F)(F)F)c1cn(-c2ccc3ncnc(Nc4c(F)ccc(NS(=O)(=O)c5cccc(Cl)c5Cl)c4F)c3n2)c2ccccc12 gave an IC50 of 1000 to 10000 nM.
For O=S(=O)(Nc1ccc(F)c(Nc2ncnc3ccc(-n4cc(S(=O)(=O)C5CCN(C6COC6)CC5)c5ccccc54)nc23)c1F)c1cccc(Cl)c1Cl, the IC50 was < 500 nM.
With COc1ccc(S(=O)(=O)Nc2ccc(F)c(Nc3ncnc4ccc(-n5nnc6ccccc65)nc34)c2F)c(C)c1Cl the IC50 was < 500 nM.
With O=S(=O)(Nc1ccc(F)c(Nc2ncnc3ccc(-n4cc(S(=O)(=O)C5=C(O)CCCC5)c5ccccc54)nc23)c1F)c1cccc(Cl)c1Cl the IC50 was < 500 nM.
In the case of Cc1c(F)cccc1S(=O)(=O)Nc1ccc(F)c(Nc2ncnc3ccc(-n4nc(C(=O)N(C)CC(C)(C)O)c5ccccc54)nc23)c1F, the IC50 is reported as < 500 nM.
Work on Cc1c(F)cccc1S(=O)(=O)Nc1ccc(F)c(Nc2ncnc3ccc(-n4nc(C(=O)NC(C)(C)c5ccccn5)c5ccccc54)nc23)c1F yielded an IC50 of 10000 to 30000 nM.
With Cc1c(F)cccc1S(=O)(=O)Nc1ccc(F)c(Nc2ncnc3ccc(-n4cc(C(=O)N(C)Cc5ccncc5)c5ccccc54)nc23)c1F the IC50 was < 500 nM.
Work on O=S(=O)(Nc1ccc(F)c(Nc2ncnc3ccc(-n4cnc5c(Cl)ccnc54)nc23)c1F)c1cccc(Cl)c1Cl yielded an IC50 of 1000 to 10000 nM.
For Cc1c(Cl)csc1S(=O)(=O)Nc1ccc(F)c(Nc2ncnc3ccc(-n4cnc5c(N)cccc54)nc23)c1F, the IC50 was < 500 nM.
Work on O=S(=O)(Nc1ccc(F)c(Nc2ncnc3ccc(-n4cnc5c(OCCO)cccc54)nc23)c1F)c1cccc(Cl)c1Cl yielded an IC50 of 500 to 1000 nM.
For CN(Cc1ccncc1)C(=O)c1nn(-c2ccc3ncnc(Nc4c(F)ccc(NS(=O)(=O)c5cccc(Cl)c5Cl)c4F)c3n2)c2ccccc12, the IC50 was < 500 nM.
Cc1ncn(-c2ccc3ncnc(Nc4c(F)ccc(NS(=O)(=O)c5cccc(F)c5C)c4F)c3n2)c1C was tested, and the IC50 was < 500 nM.
In the case of C[C@H]1COC[C@@H]1NS(=O)(=O)c1cn(-c2ccc3ncnc(Nc4c(F)ccc(NS(=O)(=O)c5cccc(Cl)c5Cl)c4F)c3n2)c2ccccc12, the IC50 is reported as < 500 nM.
For Cc1c(F)cccc1S(=O)(=O)Nc1ccc(F)c(Nc2ncnc3ccc(-n4cnc(CC#N)c4)nc23)c1F, the IC50 was < 500 nM.
In the case of Cc1ncn(-c2ccc3ncnc(Nc4c(F)ccc(NS(=O)(=O)c5cccc(Cl)c5Cl)c4F)c3n2)c1C, the IC50 is reported as 500 to 1000 nM.
CCc1c(Cl)cccc1S(=O)(=O)Nc1ccc(F)c(Nc2ncnc3ccc(-n4cnc5c(N)cccc54)nc23)c1F was tested, and the IC50 was 500 to 1000 nM.
Compound O=C(c1cn(-c2ccc3ncnc(Nc4c(F)ccc(NS(=O)(=O)c5cccc(Cl)c5Cl)c4F)c3n2)c2ccccc12)C1CC1 has an IC50 of 1000 to 10000 nM.
With CN1CC2CCC(C1)N2S(=O)(=O)c1cn(-c2ccc3ncnc(Nc4c(F)ccc(NS(=O)(=O)c5cccc(Cl)c5Cl)c4F)c3n2)c2ccccc12 the IC50 was < 500 nM.
With COc1ccc(S(=O)(=O)Nc2ccc(F)c(Nc3ncnc4ccc(-n5nnc6ccccc65)nc34)c2F)c(C)c1F the IC50 was 500 to 1000 nM.
Cc1c(F)cccc1S(=O)(=O)Nc1ccc(F)c(Nc2ncnc3ccc(-n4cc(S(=O)(=O)N(C)CCN(C)C)c5ccccc54)nc23)c1F was tested, and the IC50 was < 500 nM.
With COC[C@H]1CCCN1S(=O)(=O)c1cn(-c2ccc3ncnc(Nc4c(F)ccc(NS(=O)(=O)c5cccc(Cl)c5Cl)c4F)c3n2)c2ccccc12 the IC50 was < 500 nM.
For O=S(=O)(Nc1ccc(F)c(Nc2ncnc3ccc(-n4cnc5c(N6CCCCC6)cccc54)nc23)c1F)c1cccc(Cl)c1Cl, the IC50 was < 500 nM.
With O=S(=O)(Nc1ccc(F)c(Nc2ncnc3ccc(-c4cnn5c4CCC5)nc23)c1F)c1cccc(Cl)c1Cl the IC50 was 1000 to 10000 nM.
For Nc1cccc2c1ncn2-c1ccc2ncnc(Nc3c(F)ccc(NS(=O)(=O)c4ccccc4C(F)(F)F)c3F)c2n1, the IC50 was < 500 nM.
For CN1CCCN(c2cccc3c2ncn3-c2ccc3ncnc(Nc4c(F)ccc(NS(=O)(=O)c5cccc(Cl)c5Cl)c4F)c3n2)CC1, the IC50 was < 500 nM.
With O=S(=O)(Nc1ccc(F)c(Nc2ncnc3ccc(-n4cnc5c(N6CC[C@H](CO)C6)cccc54)nc23)c1F)c1cccc(Cl)c1Cl the IC50 was < 500 nM.
For CC(C)(C)CN1CCC(S(=O)(=O)c2cn(-c3ccc4ncnc(Nc5c(F)ccc(NS(=O)(=O)c6cccc(Cl)c6Cl)c5F)c4n3)c3ccccc23)CC1, the IC50 was 1000 to 10000 nM.
For COc1cc(C)c(S(=O)(=O)Nc2ccc(F)c(Nc3ncnc4ccc(-n5cnc6c(N)cccc65)nc34)c2F)cn1, the IC50 was 1000 to 10000 nM.
O=S(=O)(Nc1ccc(F)c(Nc2ncnc3ccc(-n4cnc5c(N6CCC(O)CC6)cccc54)nc23)c1F)c1cccc(Cl)c1Cl was tested, and the IC50 was < 500 nM.
COCCOc1cccc2c1ncn2-c1ccc2ncnc(Nc3c(F)ccc(NS(=O)(=O)c4cccc(Cl)c4Cl)c3F)c2n1 was tested, and the IC50 was < 500 nM.
With Cc1cn(-c2ccc3ncnc(Nc4c(F)ccc(NS(=O)(=O)c5cccc(F)c5C)c4F)c3n2)nc1C(=O)N(C)Cc1ccncc1 the IC50 was < 500 nM.
Compound O=S(=O)(Nc1ccc(F)c(Nc2ncnc3ccc(-n4nc5ccccc5n4)nc23)c1F)c1cccc(Cl)c1Cl has an IC50 of 1000 to 10000 nM.
With Cc1nc(C)n(-c2ccc3ncnc(Nc4c(F)ccc(NS(=O)(=O)c5cccc(Cl)c5Cl)c4F)c3n2)n1 the IC50 was 1000 to 10000 nM.
O=S(=O)(Cc1ccccn1)c1cn(-c2ccc3ncnc(Nc4c(F)ccc(NS(=O)(=O)c5cccc(Cl)c5Cl)c4F)c3n2)c2ccccc12 was tested, and the IC50 was < 500 nM.
For Cc1c(Cl)cccc1S(=O)(=O)Nc1ccc(F)c(Nc2ncnc3ccc(-n4cc(S(=O)(=O)N5CCC(O)CC5)c5ccccc54)nc23)c1F, the IC50 was < 500 nM.
With O=S(=O)(Cc1ccncc1)c1cn(-c2ccc3ncnc(Nc4c(F)ccc(NS(=O)(=O)c5cccc(Cl)c5Cl)c4F)c3n2)c2ccccc12 the IC50 was < 500 nM.
For Cc1cccc(S(=O)(=O)Nc2ccc(F)c(Nc3ncnc4ccc(-n5cnc6c(N)cccc65)nc34)c2F)c1Cl, the IC50 was < 500 nM.
In the case of COCCN(C)S(=O)(=O)c1cn(-c2ccc3ncnc(Nc4c(F)ccc(NS(=O)(=O)c5cccc(Cl)c5Cl)c4F)c3n2)c2ccccc12, the IC50 is reported as < 500 nM.
CC(C)C(=O)c1cn(-c2ccc3ncnc(Nc4c(F)ccc(NS(=O)(=O)c5cccc(Cl)c5Cl)c4F)c3n2)c2ccccc12 was tested, and the IC50 was 1000 to 10000 nM.
With CNC(=O)c1nn(-c2ccc3ncnc(Nc4c(F)ccc(NS(=O)(=O)c5cccc(F)c5C)c4F)c3n2)c2ccccc12 the IC50 was < 500 nM.
For COCCN(C)S(=O)(=O)c1cn(-c2ccc3ncnc(Nc4c(F)ccc(NS(=O)(=O)c5cccc(Cl)c5C)c4F)c3n2)c2ccccc12, the IC50 was < 500 nM.
O=S(=O)(Nc1ccc(F)c(Nc2ncnc3ccc(-n4cc(C(F)(F)F)nn4)nc23)c1F)c1cccc(Cl)c1Cl was tested, and the IC50 was 1000 to 10000 nM.
In the case of CN([C@@H]1CCOC1)S(=O)(=O)c1cn(-c2ccc3ncnc(Nc4c(F)ccc(NS(=O)(=O)c5cccc(Cl)c5Cl)c4F)c3n2)c2ccccc12, the IC50 is reported as < 500 nM.
In the case of Nc1cccc2c1ncn2-c1ccc2ncnc(Nc3c(F)ccc(NS(=O)(=O)c4ccccc4C(F)F)c3F)c2n1, the IC50 is reported as < 500 nM.
Compound O=S(=O)(Nc1ccc(F)c(Nc2ncnc3ccc(-n4cc(S(=O)(=O)N5C[C@@H](O)[C@H](F)C5)c5ccccc54)nc23)c1F)c1cccc(Cl)c1Cl has an IC50 of 1000 to 10000 nM.
For COc1ccc(S(=O)(=O)Nc2ccc(F)c(Nc3ncnc4ccc(-n5nc(C(=O)N(C)CCc6ccccn6)c6ccccc65)nc34)c2F)c(C)c1F, the IC50 was < 500 nM.
For C[C@H]1COCCN1S(=O)(=O)c1cn(-c2ccc3ncnc(Nc4c(F)ccc(NS(=O)(=O)c5cccc(Cl)c5Cl)c4F)c3n2)c2ccccc12, the IC50 was < 500 nM.
